# Experimental data taken from publication PMC11416981, “An investigation into the correlation between intraperitoneal teicoplanin concentrations and treatment outcomes in peritoneal dialysis-associated peritonitis” (Frontiers in Pharmacology, 2024).
# Tested on: PDAP patients
# Conditions: second ADR patient, during teicoplanin therapy; above 120 U/L; normalized after discontinuation or symptomatic treatment
substance,measurement,value
teicoplanin,alanine transaminase level in patient with ADR,133 U/L
